Assay outcomes: PubChem, Broad Institute
UUG fidelity: alters start codon recognition fidelity in yeast | S. cerevisiae UUG-firefly luciferase reporter, luminescence/redox ratio | activity score, % at 18.7 µM | hit rate 0.13% among 350,000 | AID 602363;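 active means replicate mean at a twofold rise or more, about +100% in these data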;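 further: firefly luciferase made from a UUG start codon reports start codon fidelity; reporter light over untreated wells divided by growth signal over untreated wells; some hits fall short of that in this replicate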
PglD inh: blocks C. jejuni PglD acetyltransferase activity; purified PglD enzyme, DTNB colorimetric CoA detection; 360,000 compounds, 0.098% hits; inhibition, % at 12.5 µM; in the data active = inhibition above about 16%, passing the limit was not always enough; inconclusive = no clear call, values can overlap the other calls
E-selectin induc: E-selectin induction on HUVECs; 260,000 compounds, 0.37% hits; activation, % at 7.58 µM; P16581; HUVEC E-selectin immunofluorescence imaging; normalized: neutral wells 0, TNF-alpha wells 100; AID 686992;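 active = mean E-selectin-positive cell signal at least 10% of the positive control, reached in at least 60% of replicates, without over 20% cell loss; inconclusive = no rule given, readout overlaps actives, possibly toxicity-flagged; inactive = the rest, including those meeting only one limit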
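Read-out basis: % PE-positive cells; Test system: HUVEC primary endothelial cells; Technique: immunofluorescence imaging; Dosing: single-point compound dose.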
esBAF inh: SWI/SNF esBAF complex inhibition; mouse ES cells, Bmi1-luciferase knock-in reporter, 24 h; 100% = twice the neutral-well signal; reporter increase, % at 12.5 µM; 350,000 compounds, 2% hits; in the data active = activation above about 40%; inconclusive = no clear call, values can overlap the other calls;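 also: a rise in the Bmi1 reporter signal indicates esBAF inhibition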
Statin myotox sup: suppression of simvastatin myotoxicity; C2C12 myotubes + simvastatin, ATP luminescence, 48 h; scaled: DMSO 0, geranylgeraniol control 100; rescue of ATP level, % at 7.49 µM; 330,000 compounds, 0.78% hits;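 active = mean ATP rescue above about 67%, or every replicate alone reaching that limit, limit read from the data, passing the limit was not always enough; inconclusive = no clear call, values can overlap the other calls; inactive = mean under the limit and some replicate under it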;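 also: myotubes were challenged with 10 µM simvastatin during compound exposure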
PGC1a acetyl inh: PGC1a acetylation modulation, inhibitor mode; U2OS PGC1a acetylation, AlphaScreen anti-acetyl-lysine; with virally co-expressed GCN5 acetyltransferase; inhibition, % at 15.6 µM; 350,000 compounds, 0.17% hits;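 active = every replicate shows inhibition of at least 40%; inconclusive = mean inhibition at least 40% but some replicate below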
Large screens that a line does not name were inactive. This is a sample that favours compounds with a hit; in the whole collection about 2.8% have one here.

COc1cccc(C(=O)Nc2nc3c(c(=O)[nH]2)CCCC3)c1	Statin myotox sup 96 (no result: E-selectin induc)
C[C@@H]1CN([C@@H](C)CO)C(=O)Cc2cc(NC(=O)CCCCCC(=O)Nc3ccccc3N)ccc2O[C@H]1CN(C)C(=O)Nc1ccc(F)cc1	none (no result: UUG fidelity, PglD inh)
O=C(Nc1sc2c(c1C(=O)O)CCCC2)c1cccs1	esBAF inh 56 (no result: E-selectin induc)
O=C(Nc1sc2c(c1C(=O)O)CCCC2)c1ccc(F)cc1	esBAF inh 68 (no result: E-selectin induc)
NC(=O)c1c(NC(=O)c2ccc(F)cc2)sc2c1CCC2	none (no result: E-selectin induc, PGC1a acetyl inh)
COc1cccc(C(=O)Nc2sc3c(c2C(=O)O)CCCC3)c1	esBAF inh 55 (no result: PGC1a acetyl inh)
CC1CCc2c(sc(NC(=O)c3cccs3)c2C(=O)O)C1 (stereo not drawn)	none (no result: UUG fidelity, PglD inh, esBAF inh, Statin myotox sup, PGC1a acetyl inh)
COC(=O)c1c(NC(=O)c2cccs2)sc2c1CCC(C)C2 (stereo not drawn)	esBAF inh 50 (no result: E-selectin induc)
CC[C@H](C)[C@@H]1NC(=O)[C@@H](CC(C)C)NC(=O)[C@H](C(C)C)NC(=O)[C@H]2CSSC[C@H](NC1=O)C(=O)N2	PGC1a acetyl inh 72
Cc1ccc(-c2csc(NC(=O)c3ccc([N+](=O)[O-])o3)n2)cc1	Statin myotox sup 91 (no result: PGC1a acetyl inh)
Cc1ccc(-c2csc(NC(=O)c3ccno3)n2)cc1	esBAF inh 60 (no result: E-selectin induc)
C[C@H](CO)N1C[C@H](C)[C@@H](CN(C)Cc2ccc(C(=O)O)cc2)Oc2ccc(NC(=O)C3CCCCC3)cc2C1=O	none (no result: E-selectin induc)
Cc1ccc(CNC(=O)C2CC(c3cccc([N+](=O)[O-])c3)=NO2)o1 (stereo not drawn)	esBAF inh 45
Cc1ccc(CNC(=O)C2CC(c3cc(C(F)(F)F)cc(C(F)(F)F)c3)=NO2)o1 (stereo not drawn)	none (no result: E-selectin induc, PGC1a acetyl inh)
CCCCNC(=O)C1CC(c2cccc(F)c2)=NO1 (stereo not drawn)	esBAF inh 85
COc1ccc(CCNC(=O)C2CC(c3cccc([N+](=O)[O-])c3)=NO2)cc1 (stereo not drawn)	esBAF inh 70
COc1ccc(CCNC(=O)C2CC(c3ccc([N+](=O)[O-])cc3)=NO2)cc1 (stereo not drawn)	none (no result: PGC1a acetyl inh)
CCC(=O)N1CC2(C1)[C@H](c1ccccc1)[C@H](CO)N2Cc1ccccc1F	none (no result: UUG fidelity, PglD inh, esBAF inh, Statin myotox sup)
Brc1cccc(-c2nnc(SCc3nc4ccccc4[nH]3)o2)c1	none (no result: E-selectin induc)
c1ccc2[nH]c(CSc3nnc(-c4ccncc4)o3)nc2c1	Statin myotox sup 85 (no result: E-selectin induc)
Clc1ccccc1CSc1nnc(-c2ccncc2)o1	esBAF inh 49 (no result: E-selectin induc, Statin myotox sup, PGC1a acetyl inh)
c1ccc2c(CSc3nnc(-c4ccncc4)o3)cccc2c1	none
Cc1ccc(S(=O)(=O)N(C)C[C@@H]2OCCCC[C@H](C)Oc3ccc(NS(C)(=O)=O)cc3C(=O)N([C@H](C)CO)C[C@H]2C)cc1	none (no result: Statin myotox sup)
O=C(CNS(=O)(=O)c1ccc(Br)s1)N1CCN(c2ncccn2)CC1	Statin myotox sup 150 (no result: E-selectin induc)
COc1ccc(-c2ccc3oc(-c4ccsc4)cc3c2)cc1	esBAF inh 64 (no result: PGC1a acetyl inh)
COc1ccc(-c2csc(Nc3cccc(C)n3)n2)cc1C	esBAF inh 45 (no result: E-selectin induc)
COc1ccc(-c2csc(Nc3cccc(C)n3)n2)cc1	none
CC(=O)Oc1ccc(-c2csc(Nc3cccc(C)n3)n2)cc1	esBAF inh 65 (no result: E-selectin induc, PGC1a acetyl inh)
C[C@@H]1CN([C@H](C)CO)C(=O)Cc2cc(N(C)C)ccc2O[C@H]1CN(C)Cc1ccc(Oc2ccccc2)cc1	none
CC1(C)Cc2c(sc3nc(-c4cccs4)n(N)c(=O)c23)CO1	esBAF inh 73 (no result: E-selectin induc, PGC1a acetyl inh)
CCC1(C)Cc2c(sc3nc(SC)n(Cc4ccccc4)c(=O)c23)CO1 (stereo not drawn)	esBAF inh 59 (no result: E-selectin induc, PGC1a acetyl inh)
CN(C)c1nc2sc3c(c2c(=O)n1C)CC(C)(C)OC3	none (no result: E-selectin induc)
CC1(C)Cc2c(sc3nc(-c4ccccc4)n(N)c(=O)c23)CO1	esBAF inh 43 (no result: E-selectin induc)
C[C@@H]1CN([C@H](C)CO)C(=O)Cc2cc(NC(=O)c3ccncc3)ccc2O[C@H]1CN(C)S(=O)(=O)c1ccc(Cl)cc1	none (no result: UUG fidelity, PglD inh)
CCc1nnc(NS(=O)(=O)c2ccc(N/C=C(\C=O)c3nc4cc(Cl)ccc4o3)cc2)s1	Statin myotox sup 93 (no result: E-selectin induc)
CCc1nnc(NS(=O)(=O)c2ccc(NC(=O)c3ccc(Cl)cc3)cc2)s1	none (no result: UUG fidelity, PglD inh, E-selectin induc, esBAF inh, Statin myotox sup)
COc1cc2c(cc1OC)CN(c1ccc3ccccc3n1)CC2	esBAF inh inconclusive (no result: PGC1a acetyl inh)
COc1cc2c(cc1OC)CN(c1ccc(C(F)(F)F)cn1)CC2	esBAF inh 41 (no result: E-selectin induc, PGC1a acetyl inh)
CCOC(=O)C(C(=O)OCC)C1N=C(N)N=C2Oc3ccccc3N21 (stereo not drawn)	esBAF inh 89 (no result: E-selectin induc)
Nc1nnc(SCc2ccc(F)cc2)s1	none (no result: E-selectin induc, PGC1a acetyl inh)
CC(=O)Nc1nnc(SCC(=O)c2ccc(F)cc2)s1	none (no result: UUG fidelity, PglD inh, E-selectin induc)
CC(=O)Nc1nnc(SCc2ccc(F)cc2)s1	esBAF inh 46 (no result: E-selectin induc)
CC(=O)Nc1nnc(SCc2cccc(F)c2)s1	Statin myotox sup 87 (no result: PglD inh)
Cc1nnc(SCc2ccc(F)cc2)s1	esBAF inh 53 (no result: E-selectin induc)
Cc1nnc(SCc2cccc3ccccc23)s1	esBAF inh 64
Cc1ccc(NC(=O)c2ccc(CSc3nnc(C)s3)cc2)cc1	none (no result: E-selectin induc, Statin myotox sup)
NC(=O)CSc1nnc(SCc2ccc(F)cc2)s1	E-selectin induc 27
Cc1cc(C)cc(NC(=O)c2ccc(CSc3nnc(C)s3)cc2)c1	Statin myotox sup 122 (no result: E-selectin induc)
COC(=O)CSc1nnc(SCc2ccc(Cl)cc2)s1	none (no result: E-selectin induc)
CSc1nncn1/N=C/c1ccc2c(c1)OCO2	Statin myotox sup 106 (no result: E-selectin induc)
Cc1c(CC(=O)N[C@@H](C)C(=O)O)c(=O)oc2cc3c(cc12)CCC(C)(C)O3	none (no result: E-selectin induc)
Cc1c(CC(=O)NC(C)C)c(=O)oc2cc3c(cc12)CCC(C)(C)O3	esBAF inh 49 (no result: PGC1a acetyl inh)
Cc1c(CC(=O)N[C@H](C(=O)O)C(C)C)c(=O)oc2cc3c(cc12)CCC(C)(C)O3	esBAF inh 61 (no result: E-selectin induc)
CCC(C)NC(=O)Cc1c(C)c2cc3c(cc2oc1=O)OC(C)(C)CC3 (stereo not drawn)	esBAF inh 67 (no result: E-selectin induc)
COc1ccc(-c2csc(NC(=O)c3c(C)noc3C)n2)cc1	esBAF inh 48 (no result: E-selectin induc)
COc1ccc(-c2csc(NC(=O)CS(=O)(=O)c3ccccc3)n2)cc1	none (no result: E-selectin induc, PGC1a acetyl inh)
COc1ccc(-c2csc(NC(=O)CSc3nc(SC)ns3)n2)cc1	esBAF inh 67 (no result: UUG fidelity, PglD inh, E-selectin induc)
CCCC(=O)Nc1nc(-c2ccc(OC)cc2)cs1	esBAF inh 68 (no result: E-selectin induc)
CCSc1nnc(NC(=O)CSC2=NCCS2)s1	PGC1a acetyl inh 94 (no result: UUG fidelity, PglD inh, esBAF inh, Statin myotox sup)
CCCNC(=O)C[C@@H]1CC[C@H]2[C@@H](COc3ccc(NC(=O)C4CCOCC4)cc3C(=O)N2C)O1	none
COc1ccc(NC(=O)Nc2cccc3c2O[C@H](CN(C)Cc2ccccc2)[C@@H](C)CN([C@H](C)CO)C3=O)cc1	none
CN(C)CC(=O)Nc1ccc2c(c1)[C@H]1C[C@H](CC(=O)NCc3cccc(F)c3)O[C@@H](CO)[C@H]1O2	none
